This passage reports inhibition results from ChEMBL document CHEMBL5579830, “Design and synthesis of 6-C-alkyl-DMDP type nanomolar inhibitors of β-galactosidase and β-glucosidase based on broussonetine S and related derivatives” (Eur J Med Chem, 2024).

Amino acid sequences for entries named in this document (tags omitted). A change or cut given only in a name is not applied to a line headed by its entry.
UniProt Q42656: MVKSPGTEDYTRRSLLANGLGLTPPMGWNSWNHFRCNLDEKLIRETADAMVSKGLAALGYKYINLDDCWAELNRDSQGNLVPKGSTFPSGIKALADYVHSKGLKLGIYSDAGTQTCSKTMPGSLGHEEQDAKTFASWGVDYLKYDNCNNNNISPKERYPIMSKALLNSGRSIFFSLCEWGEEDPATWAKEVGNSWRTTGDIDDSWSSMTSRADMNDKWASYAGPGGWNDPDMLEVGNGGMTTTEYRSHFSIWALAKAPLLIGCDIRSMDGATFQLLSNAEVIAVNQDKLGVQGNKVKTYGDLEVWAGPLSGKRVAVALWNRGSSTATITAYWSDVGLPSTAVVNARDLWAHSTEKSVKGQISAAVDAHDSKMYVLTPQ

SMILES strings stand for the structures.

For experiment [1], the target named is T1, Alpha-mannosidase (Canavalia ensiformis) (UniProt C0HJB3).
T1 sequence (whole entry): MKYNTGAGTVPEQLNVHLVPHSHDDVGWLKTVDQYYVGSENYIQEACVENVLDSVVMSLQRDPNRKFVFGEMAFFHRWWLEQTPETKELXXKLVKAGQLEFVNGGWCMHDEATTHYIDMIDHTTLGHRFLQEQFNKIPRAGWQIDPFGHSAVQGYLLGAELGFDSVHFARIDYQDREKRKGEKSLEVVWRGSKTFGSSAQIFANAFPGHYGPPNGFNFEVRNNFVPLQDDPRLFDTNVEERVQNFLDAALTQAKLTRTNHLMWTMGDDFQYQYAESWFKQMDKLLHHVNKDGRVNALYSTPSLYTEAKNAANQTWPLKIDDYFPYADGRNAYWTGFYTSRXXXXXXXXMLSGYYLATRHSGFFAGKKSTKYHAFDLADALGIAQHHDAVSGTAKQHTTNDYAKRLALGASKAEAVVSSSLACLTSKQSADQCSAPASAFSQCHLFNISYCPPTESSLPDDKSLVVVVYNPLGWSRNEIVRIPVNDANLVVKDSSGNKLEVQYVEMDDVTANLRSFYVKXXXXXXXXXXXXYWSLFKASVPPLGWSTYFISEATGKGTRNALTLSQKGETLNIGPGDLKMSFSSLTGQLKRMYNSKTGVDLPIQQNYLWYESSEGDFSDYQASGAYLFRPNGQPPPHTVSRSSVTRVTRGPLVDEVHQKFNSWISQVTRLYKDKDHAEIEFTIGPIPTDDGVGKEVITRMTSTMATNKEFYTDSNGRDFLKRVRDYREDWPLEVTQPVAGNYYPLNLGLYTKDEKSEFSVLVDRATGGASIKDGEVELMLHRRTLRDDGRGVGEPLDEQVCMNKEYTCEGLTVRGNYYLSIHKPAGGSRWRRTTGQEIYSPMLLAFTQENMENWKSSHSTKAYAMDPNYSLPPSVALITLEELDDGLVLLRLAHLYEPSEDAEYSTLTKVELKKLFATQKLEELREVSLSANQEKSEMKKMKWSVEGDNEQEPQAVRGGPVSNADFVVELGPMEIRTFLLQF
The experiment is described as follows: Inhibition of jack bean alpha-mannosidase using p-nitrophenyl glycoside as substrate assessed as release of p-nitrophenol at 1000 uM by spectrometric analysis relative to control.

Experiment [2] concerns the target Alpha-galactosidase (Coffea arabica) (UniProt Q42656). Description: Inhibition of coffee bean alpha-galactosidase using p-nitrophenyl glycoside as substrate assessed as release of p-nitrophenol at 1000 uM by spectrometric analysis relative to control.

On to `CCCCCCCCCCCC[C@H](O)[C@H]1N[C@H](CO)[C@@H](O)[C@@H]1O`, for which the inhibition in experiment [1] is 2.6%.
Take `CCCCCCCCCCC[C@H](O)[C@H]1N[C@H](CO)[C@@H](O)[C@@H]1O`: the inhibition in experiment [2] amounted to 0%; in experiment [1] it was 4.4%.
Consider `CCCCCCCCCCCCCC[C@H](O)[C@H]1N[C@H](CO)[C@@H](O)[C@@H]1O`, for which the inhibition in experiment [1] stood at 0.4%.
With `CCCCCCCCCCCC[C@@H](O)[C@H]1N[C@H](CO)[C@@H](O)[C@@H]1O`, in experiment [1], the inhibition was 0.2%.
Still for that read-out and setting: for `CCCCCCCCCCCCCC[C@@H](O)[C@H]1N[C@H](CO)[C@@H](O)[C@@H]1O` the value was 0.7%.
For `CCCCCCCCCCC[C@@H](O)[C@H]1N[C@H](CO)[C@@H](O)[C@@H]1O`, the inhibition in experiment [2] was 0%; in experiment [1] it was 5.5%.
